According to ChEMBL document CHEMBL1142270, “Synthesis, thermal stability, antimalarial activity of symmetrically and asymmetrically substituted tetraoxanes” (Bioorg Med Chem Lett, 2008):

System: Vero
Assay: Cytotoxicity against african green monkey Vero cells by neutral red assay upto 16.72 uM
Type: cell-based
Details: chlorocebus sabaeus

In the case of `c1ccc(C2OOC3(CCCC3)OO2)cc1`, the Activity was “Non-toxic”.
